Results from ChEMBL document CHEMBL3797125, “Discovery of GluN2A-Selective NMDA Receptor Positive Allosteric Modulators (PAMs): Tuning Deactivation Kinetics via Structure-Based Design” (J Med Chem, 2016).

Protein sequences, listed by entry. Tags and fused reporters are not part of them.
UniProt Q13224, whole entry, looked up: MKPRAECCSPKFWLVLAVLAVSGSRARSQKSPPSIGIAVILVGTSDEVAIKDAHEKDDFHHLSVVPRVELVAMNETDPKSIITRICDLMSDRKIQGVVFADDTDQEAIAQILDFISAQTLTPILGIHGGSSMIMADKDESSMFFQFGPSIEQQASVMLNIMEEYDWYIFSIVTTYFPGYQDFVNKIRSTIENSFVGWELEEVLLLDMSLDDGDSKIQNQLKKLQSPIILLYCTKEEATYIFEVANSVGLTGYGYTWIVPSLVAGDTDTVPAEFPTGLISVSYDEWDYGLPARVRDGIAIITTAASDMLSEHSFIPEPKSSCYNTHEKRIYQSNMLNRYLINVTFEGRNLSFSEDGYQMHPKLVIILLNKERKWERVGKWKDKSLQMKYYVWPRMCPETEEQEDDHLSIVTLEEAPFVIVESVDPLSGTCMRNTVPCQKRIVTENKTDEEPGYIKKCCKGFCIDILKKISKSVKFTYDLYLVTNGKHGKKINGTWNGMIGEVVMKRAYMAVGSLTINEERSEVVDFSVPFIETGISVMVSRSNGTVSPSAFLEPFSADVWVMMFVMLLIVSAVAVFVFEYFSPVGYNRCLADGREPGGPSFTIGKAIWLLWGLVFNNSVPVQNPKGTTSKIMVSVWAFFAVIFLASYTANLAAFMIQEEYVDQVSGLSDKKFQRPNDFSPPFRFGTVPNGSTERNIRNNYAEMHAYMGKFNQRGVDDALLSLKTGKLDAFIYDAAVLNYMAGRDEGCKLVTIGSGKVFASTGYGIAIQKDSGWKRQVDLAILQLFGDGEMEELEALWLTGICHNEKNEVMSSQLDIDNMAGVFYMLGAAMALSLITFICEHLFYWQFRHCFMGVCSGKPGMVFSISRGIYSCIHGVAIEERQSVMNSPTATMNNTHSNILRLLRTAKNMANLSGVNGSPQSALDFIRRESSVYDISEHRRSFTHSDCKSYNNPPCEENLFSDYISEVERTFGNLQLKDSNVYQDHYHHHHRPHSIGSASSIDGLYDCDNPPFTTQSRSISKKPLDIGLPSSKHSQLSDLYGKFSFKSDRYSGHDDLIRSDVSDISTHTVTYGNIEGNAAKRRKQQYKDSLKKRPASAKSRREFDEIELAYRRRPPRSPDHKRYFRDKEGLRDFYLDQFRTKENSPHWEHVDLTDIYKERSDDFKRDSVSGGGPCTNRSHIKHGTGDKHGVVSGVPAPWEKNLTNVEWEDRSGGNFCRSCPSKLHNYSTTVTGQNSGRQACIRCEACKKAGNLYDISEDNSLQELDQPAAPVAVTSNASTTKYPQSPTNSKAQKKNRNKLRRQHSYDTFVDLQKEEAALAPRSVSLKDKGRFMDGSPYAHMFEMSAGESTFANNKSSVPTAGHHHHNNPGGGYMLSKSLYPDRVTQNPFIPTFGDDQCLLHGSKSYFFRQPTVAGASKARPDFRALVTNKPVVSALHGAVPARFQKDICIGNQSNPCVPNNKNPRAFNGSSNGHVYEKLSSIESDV
UniProt Q12879, whole entry, looked up: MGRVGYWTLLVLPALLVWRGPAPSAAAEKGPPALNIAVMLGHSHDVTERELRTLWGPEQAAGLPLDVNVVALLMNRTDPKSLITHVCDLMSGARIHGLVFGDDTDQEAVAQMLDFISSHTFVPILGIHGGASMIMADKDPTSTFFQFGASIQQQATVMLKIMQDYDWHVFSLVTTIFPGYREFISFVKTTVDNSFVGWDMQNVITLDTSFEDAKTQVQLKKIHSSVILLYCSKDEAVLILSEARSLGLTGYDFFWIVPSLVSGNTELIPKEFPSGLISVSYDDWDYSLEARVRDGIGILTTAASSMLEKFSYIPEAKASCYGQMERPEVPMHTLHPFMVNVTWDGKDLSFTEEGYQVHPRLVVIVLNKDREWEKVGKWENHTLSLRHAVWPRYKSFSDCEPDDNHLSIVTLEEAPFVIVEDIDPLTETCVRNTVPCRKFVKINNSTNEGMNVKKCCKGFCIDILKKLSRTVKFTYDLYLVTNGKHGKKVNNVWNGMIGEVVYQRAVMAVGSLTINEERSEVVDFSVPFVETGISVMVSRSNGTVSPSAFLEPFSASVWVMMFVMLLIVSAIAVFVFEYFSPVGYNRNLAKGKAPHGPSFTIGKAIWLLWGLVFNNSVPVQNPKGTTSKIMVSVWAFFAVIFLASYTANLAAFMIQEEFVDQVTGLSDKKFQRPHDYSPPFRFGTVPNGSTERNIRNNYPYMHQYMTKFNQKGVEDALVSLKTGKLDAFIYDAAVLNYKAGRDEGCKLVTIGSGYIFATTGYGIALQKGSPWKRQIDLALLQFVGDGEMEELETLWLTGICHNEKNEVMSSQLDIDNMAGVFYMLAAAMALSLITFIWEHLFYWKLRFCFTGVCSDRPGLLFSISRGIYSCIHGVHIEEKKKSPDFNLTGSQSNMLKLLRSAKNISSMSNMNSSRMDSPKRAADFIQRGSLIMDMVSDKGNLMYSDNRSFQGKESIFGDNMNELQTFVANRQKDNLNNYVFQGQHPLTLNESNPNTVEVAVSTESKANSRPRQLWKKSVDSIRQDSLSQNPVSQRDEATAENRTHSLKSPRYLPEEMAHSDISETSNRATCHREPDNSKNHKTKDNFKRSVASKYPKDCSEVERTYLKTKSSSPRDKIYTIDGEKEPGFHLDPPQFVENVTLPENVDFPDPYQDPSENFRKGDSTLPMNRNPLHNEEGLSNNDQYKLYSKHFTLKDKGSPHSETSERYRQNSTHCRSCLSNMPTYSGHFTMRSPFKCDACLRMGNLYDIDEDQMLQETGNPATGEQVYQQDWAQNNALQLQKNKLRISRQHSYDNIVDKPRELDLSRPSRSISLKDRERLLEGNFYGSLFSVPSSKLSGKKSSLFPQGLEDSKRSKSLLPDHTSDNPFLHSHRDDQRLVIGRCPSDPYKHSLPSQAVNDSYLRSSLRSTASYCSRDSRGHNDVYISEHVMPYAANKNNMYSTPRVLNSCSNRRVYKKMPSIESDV

Tests used:
Assay type in all cases: cell-based
[1] = target: Glutamate NMDA receptor; GRIN1/GRIN2B (Homo sapiens) (UniProt Q05586+Q13224); experiment: Positive allosteric modulation of GluN1/GluN2B NMDAR (unknown origin) expressed in Dox-inducible cells at 125 uM measured every 5 mins by BD calcium indicator dye based-fluorescence analysis in presence of glutamate/glycine
Method in brief: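 Doxycycline-induced (2 µg/mL, overnight, 500 µM ketamine) GluN2B-containing NMDAR cells, loaded with calcium dye for 50 min; compound added at 2x in 2x EC30 Glu, with saturating Gly; fluorescence recorded over 5 min. Max potentiation at 125 µM reported where no EC50 obtained; 30% denotes baseline (EC30 Glu).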

Homo sapiens = species: Homo sapiens; experiment: Selectivity ratio of EC50 for human GluA2 AMPAR flop isomer to EC50 for GluN1/GluN2A NMDAR (unknown origin) expressed in Dox-inducible cells
[2] = target: Glutamate NMDA receptor; GRIN1/GRIN2A (Homo sapiens, UniProt Q05586+Q12879); experiment: Positive allosteric modulation of GluN1/GluN2A NMDAR (unknown origin) expressed in Dox-inducible cells at 125 uM measured every 5 mins by BD calcium indicator dye based-fluorescence analysis in presence of glutamate/glycine
Method in brief: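 GluN2A-containing NMDAR cell line, harvested, seeded, doxycycline 2 µg/mL overnight with 500 µM ketamine for protection, then washed and loaded with calcium dye for 50 min. Compound added at 2x concentration in 2x EC30 Glu (EC30 set daily from Glu dose-response); saturating Gly throughout; fluorescence recorded over 5 min. 10-point 1:2 dilutions; EC50 as geometric mean of ≥2 determinations; max potentiation at 125 µM where no EC50, baseline 30% (EC30 Glu).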

%max [1]: 49%
%max [2]: 152%
Structure (SMILES): N#C[C@@H]1C[C@H]1c1c(C(F)(F)F)sc2nc(Cn3nc(C(F)(F)F)cc3Cl)cc(=O)n12
Ratio EC50 (Homo sapiens): > 250
